The test deals with PD-1/PD-L1 (Homo sapiens (Human), UniProt Q9NZQ7). Kind of test: PD-1/PD-L1 biochemical protein-protein interaction assay (ALPHA). The conditions noted are these: read-out: IC50 PD-L1-PD1, 0.3 nM His tagged PD-L1, 2.5 nM biotinylated Fc-PD-1, 60 minutes at 25° C.

Amino acid sequences for entries named in this document (tags omitted). Residues count along the entry.
UniProt Q9NZQ7, 19-238 limits assumed: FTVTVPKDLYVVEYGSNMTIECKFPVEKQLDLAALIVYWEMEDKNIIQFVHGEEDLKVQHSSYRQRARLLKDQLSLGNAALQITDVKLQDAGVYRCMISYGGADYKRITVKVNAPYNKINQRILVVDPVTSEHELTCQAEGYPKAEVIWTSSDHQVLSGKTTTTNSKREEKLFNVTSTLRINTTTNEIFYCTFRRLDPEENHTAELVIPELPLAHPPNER

In general, IC50 refers to the concentration at which inhibition is half-maximal. Take `COc1nc(-c2cccc(-c3cccc(-c4cnc(CN5C[C@H](C)[C@@H](O)C5)c(OC)n4)c3Cl)c2Cl)cnc1CN1C[C@H](C)[C@@H](O)C1`: the IC50 worked out at 0.239 nM.

These data come from patent US10710986B2, “PD-1/PD-L1 inhibitors” (Gilead Sciences, Inc., priority 2018, dated 2020).
